The record followed here is patent US9108949B2, “Compounds and methods of prophylaxis and treatment regarding nicotinic receptor antagonists” (dated 2015).

Sequences of proteins named here, by UniProt entry; tags and fusion partners are left off. Residues count along the entry.
UniProt P09483, 31-630 limits assumed: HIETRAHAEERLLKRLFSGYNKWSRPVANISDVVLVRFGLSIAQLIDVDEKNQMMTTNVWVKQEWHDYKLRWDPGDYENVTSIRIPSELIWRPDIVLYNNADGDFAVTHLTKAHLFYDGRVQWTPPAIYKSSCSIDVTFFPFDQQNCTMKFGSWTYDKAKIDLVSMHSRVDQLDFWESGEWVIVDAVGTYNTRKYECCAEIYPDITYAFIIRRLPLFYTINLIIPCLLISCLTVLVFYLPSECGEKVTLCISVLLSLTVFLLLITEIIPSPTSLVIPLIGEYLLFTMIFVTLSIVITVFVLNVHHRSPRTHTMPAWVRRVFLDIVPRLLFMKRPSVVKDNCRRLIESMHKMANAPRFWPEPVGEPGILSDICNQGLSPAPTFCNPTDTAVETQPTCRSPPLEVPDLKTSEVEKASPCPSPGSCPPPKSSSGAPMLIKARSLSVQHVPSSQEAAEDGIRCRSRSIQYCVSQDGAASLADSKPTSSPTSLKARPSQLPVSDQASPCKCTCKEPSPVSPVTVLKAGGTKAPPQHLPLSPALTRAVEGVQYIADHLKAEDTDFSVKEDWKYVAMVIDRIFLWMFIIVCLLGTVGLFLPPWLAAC
UniProt P12390, 25-500 limits assumed: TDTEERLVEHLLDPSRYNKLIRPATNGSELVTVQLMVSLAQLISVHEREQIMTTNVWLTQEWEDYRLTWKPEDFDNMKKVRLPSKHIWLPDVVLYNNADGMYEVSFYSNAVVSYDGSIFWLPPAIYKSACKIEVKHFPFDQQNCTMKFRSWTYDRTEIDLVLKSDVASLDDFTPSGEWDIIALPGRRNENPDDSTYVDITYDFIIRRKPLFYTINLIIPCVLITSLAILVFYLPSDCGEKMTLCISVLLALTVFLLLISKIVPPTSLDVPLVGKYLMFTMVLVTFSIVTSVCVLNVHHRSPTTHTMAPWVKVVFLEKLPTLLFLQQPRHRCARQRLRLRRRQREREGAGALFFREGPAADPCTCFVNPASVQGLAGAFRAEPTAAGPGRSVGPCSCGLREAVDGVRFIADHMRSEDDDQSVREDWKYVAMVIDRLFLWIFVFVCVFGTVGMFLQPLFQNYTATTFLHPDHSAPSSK

Data set [1] is described as follows: Blood brain barrier penetration after cassette dosing in mice. To be noted: cassette dosing 10 mg/kg ip, male C57Bl/6 mice.
Data set [2] addresses neuronal α4β2 nAChRs (Rattus norvegicus, UniProt P09483+P12390). Kind of data set: α4β2 receptor binding on rat cortical membranes with [3H]epibatidine. To be noted: at 10 1M.
Data set [3] relates to seizure induced by the nerve agent diisopropylfluorophosphate (DFP). Kind of data set: DFP toxicity animal model, anti-seizure activity.

For the compound `CCCc1c(C(=O)NC2CCN(Cc3ccccc3)CC2)cnn1-c1ccccc1`, in data set [1], the area under the curve (AUC) ratio of brain to plasma worked out at 3.1 and the concentration in brain came out at 9 µM. In data set [2], the “binding to the neuronal α4β2” value came to 1.3%. In data set [3] (compared with DFP controls, over a 2 h period post-injection), the “Normalized % neuroprotection (antagonism of DFP-induced seizure-like behaviors)” value is 91.2%. In data set [3] (pretreatment before DFP, 2 h period post-injection), the “Seizure score (mean ± SD)” value was 0.8 ± 1.3. Further, in data set [3] (relative to DFP controls), the Normalized % seizure turned out to be 8.8%.
